Tested on: LS-180 tumor xenografts
Conditions: mouse, in vivo

With “[(N-methyl-N-biotinyl)-N-glycyl]-aminobenzyl-DOTA [Lu-177-DOTA-biotin]” the “AUC tumor/AUC blood, increase over comparable conventional MAb-radiolabel administration” value was “over 1000%”, the “AUC tumor/AUC blood, increase over comparable direct MAb-radiolabel administration” value was 300% and the delivery to tumor was 20-25 % injected dose/gram of tumor.

Source: patent publication US5976535A, “Pretargeting protocols for the enhanced localization of cytotoxins to target sites and cytotoxic combinations useful therefore” (NeoRx Corporation, priority 1995, dated 1999)
